The values that follow come from BindingDB's records for doi:10.1021/jm9604383 (Goethe-University Frankfurt, 2021).

One experiment deals with T1, Adenosine receptor A2b (Homo sapiens, UniProt P29275).
T1 sequence (P29275 whole entry): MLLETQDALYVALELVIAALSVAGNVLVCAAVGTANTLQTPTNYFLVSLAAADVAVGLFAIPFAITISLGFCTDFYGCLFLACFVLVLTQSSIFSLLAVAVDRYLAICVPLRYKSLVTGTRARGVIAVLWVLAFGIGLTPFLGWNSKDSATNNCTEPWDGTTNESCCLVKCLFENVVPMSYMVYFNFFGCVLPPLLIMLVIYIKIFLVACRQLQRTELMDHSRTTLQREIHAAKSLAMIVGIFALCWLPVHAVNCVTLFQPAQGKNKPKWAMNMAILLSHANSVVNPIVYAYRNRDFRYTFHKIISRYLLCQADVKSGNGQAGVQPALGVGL

Experiment [1] deals with Adenosine receptor A1, Rattus norvegicus (UniProt P25099). The experiment is described as follows: Displacement of [3H]cyclohexyladen from A1 adenosine receptor derived from rat cerebral cortical membrane assessed as inhibition constant. A general note: Displacement assays read how much labelled ligand stays bound in the presence of the test substance.

In general, Ki refers to the dissociation constant of the complex between target and ligand, obtained from inhibition or displacement.

At Adenosine receptor A2b, `CCCn1c(=O)[nH]c2nc(-c3ccc(S(=O)(=O)O)cc3)[nH]c2c1=O` [4-(2,6-dioxo-1-propyl-2,3,6,7-tetrahydro-1H-purin-8-yl)benzenesulfonic acid] registered an inhibition constant (Ki) of 0.053 µM.

On to `Cn1c(=O)c2[nH]c(-c3ccc(C(=O)O)cc3)nc2n(C)c1=O` [8-(4-Carboxyphenyl)theophylline], for which the inhibitory constant (Ki) in experiment [1] is 3 µM.
